{
  "source": "patent US11787839B2",
  "about": "“Targeting α2δ-1-bound glutamate receptors for treating diseases and disorders” (Board of Regents, The University of Texas System, priority 2017, dated 2023)",
  "key": {"[1]": {"target": "presynaptic NMDARs of spinal lamina II neurons (Rattus norvegicus, UniProt P35439+Q00959+Q00960)"}, "[2]": {"target": "T1, NMDARs of spinally projecting PVN neurons (Rattus norvegicus, UniProt P35439+Q00959+Q00960)", "T1 construct": "from tissue; host or cells: rat hypothalamic slices containing the PVN (Sprague-Dawley, WKY, SHR) and synaptosomes made from them", "experiment": "Recordings of spinally projecting PVN neurons in rat brain slices (Ang II)", "type": "cell-based", "conditions": "bath AP5 50 μmol/L"}, "[3]": {"target": "T2, NMDARs of spinal dorsal horn neurons (Rattus norvegicus, UniProt P35439+Q00959+Q00960)", "T2 construct": "from tissue; host or cells: rat lumbar spinal cord slices (lamina II neurons) and synaptosomes made from them", "experiment": "Electrophysiological recordings in rat spinal cord slices (SNL, Cacna2d1 vector)", "type": "cell-based", "conditions": "Cacna2d1 vector rats; AP5 application within 5 min", "experimental": "Electrophysiological recordings in spinal cord slices: Anesthesia was induced in rats or mice with isoflurane and removed the lumbar spinal cords via laminectomy. […] The spinal cord slices were placed in a glass bottom chamber and continuously perfused with Krebs solution at 5.0 ml/min at 34° C. maintained by an inline solution heater and a temperature controller.\nIt becomes impossible to visualize neurons in other laminas in adult (>10-week-old) rodent spinal cords because of heavy laminar myelination. […] The tip of the puff pipette was placed 150 μm away from the recorded neuron.\nIn some experiments, the attached dorsal root was electrically stimulated with a stimulating electrode (0.5 ms, 0.6 mA and 0.1 Hz) to evoke monosynaptic excitatory postsynaptic currents (EPSCs). The α-amino-3-hydroxy-5-methyl-4-isoxazolepropionic acid receptor (AMPAR)-mediated EPSCs were recorded at a holding potential of −60 mV in the presence of 10 μM bicuculline and 1 μM strychnine, whereas NMDAR-mediated EPSCs were recorded at +40 mV in the presence of 10 μM 6-cyano-7-nitroquinoxaline-2,3-dione, 10 μM bicuculline, and 1 μM strychnine. […] All signals were recorded using an amplifier (MultiClamp700B; Axon Instruments Inc., Union City, Calif.), filtered at 1-2 kHz, digitized at 10 kHz, and stored for off-line analysis. […]"}, "[4]": {"target": "T3, presynaptic NMDARs of spinal dorsal horn neurons (Rattus norvegicus, UniProt P35439+Q00959+Q00960)", "T3 construct": "from tissue; host or cells: rat lumbar spinal cord slices (lamina II neurons) and synaptosomes made from them", "experiment": "Spinal cord slice recordings, morphine-treated rats", "type": "cell-based"}, "[5]": {"target": "T4, NMDARs of RVLM-projecting PVN neurons (Rattus norvegicus, UniProt P35439+Q00959+Q00960)", "T4 construct": "from tissue; host or cells: rat hypothalamic slices containing the PVN (Sprague-Dawley, WKY, SHR) and synaptosomes made from them", "experiment": "Recordings of RVLM-projecting PVN neurons in slices of WKY rats and SHRs", "type": "cell-based"}, "[6]": {"conditions": "paclitaxel-treated rats, AP5 50 μM, pregabalin 20 μM, peptides 1 μM"}},
  "note": "Entries after “also recorded” stand apart in the source; their conditions may differ.",
  "data": [
    {"substance": "(2R)-amino-5-phosphonopentanoate [AP5]", "values": [
      {"measurement": "PPR, AP5 in α2δ-1Tat peptide-treated neurons", "setting": "[1]; paclitaxel-treated rats", "value": "had no effect"},
      {"measurement": "amplitude of evoked EPSCs, AP5 in control peptide-incubated neurons", "setting": "[1]; paclitaxel-treated rats", "value": "returned the amplitude of evoked EPSCs to the level observed in vehicle-treated rats"},
      {"measurement": "amplitude of evoked EPSCs, subsequent AP5 after α2δ-1Tat peptide", "setting": "[1]; paclitaxel-treated rats", "value": "had no effect"},
      {"measurement": "frequency of mEPSCs, subsequent AP5 in α2δ-1Tat peptide-treated slices", "setting": "[1]; paclitaxel-treated rats", "value": "had no effect"},
      {"measurement": "reduced PPR of evoked EPSCs", "setting": "[1]; paclitaxel-treated rats", "value": "reversed"},
      {"measurement": "reduced PPR, AP5 in control peptide-treated neurons", "setting": "[1]; paclitaxel-treated rats", "value": "reversed the reduced PPR"},
      {"measurement": "frequency of mEPSCs, subsequent AP5 in pregabalin-treated neurons", "setting": "[1]; paclitaxel-treated rats, AP5 50 μM", "value": "no longer had any effect"},
      {"measurement": "increased amplitude of evoked monosynaptic EPSCs", "setting": "[1]; [6]", "value": "rapidly reversed"},
      {"measurement": "increased frequency of mEPSCs of lamina II neurons", "setting": "[1]; [6]", "value": "rapidly reversed"},
      {"measurement": "PPR of evoked EPSCs", "setting": "[1]; vehicle-treated rats", "value": "had no effect"},
      {"measurement": "amplitude of evoked monosynaptic EPSCs", "setting": "[1]; vehicle-treated rats, AP5 50 μM, pregabalin 20 μM, peptides 1 μM", "value": "had no effect"},
      {"measurement": "frequency of mEPSCs in vehicle-treated slices", "setting": "[2]", "value": "had no effect"},
      {"measurement": "increased mEPSC frequency in slices treated with Ang II plus the control peptide", "setting": "[2]", "value": "normalized"},
      {"measurement": "mEPSC frequency in slices treated with Ang II plus pregabalin", "setting": "[2]", "value": "had no effect"},
      {"measurement": "mEPSC frequency in slices treated with Ang II plus α2δ-1Tat peptide", "setting": "[2]", "value": "had no effect"},
      {"measurement": "Ang II-induced increase in mEPSC frequency", "setting": "[2]; Ang II (plus vehicle) slices", "value": "rapidly reversed; also recorded: readily normalized"},
      {"measurement": "increase in the mEPSC frequency induced by Cacna2d1 overexpression", "setting": "[3]", "value": "normalized"},
      {"measurement": "amplitude or PPR of evoked EPSCs, AP5 after gabapentin incubation", "setting": "[4]", "value": "had no significant effect"},
      {"measurement": "amplitude or PPR of evoked EPSCs, AP5 after α2δ-1Tat peptide", "setting": "[4]", "value": "had no significant effect"},
      {"measurement": "frequency of mEPSCs, AP5 in α2δ-1Tat peptide-incubated neurons", "setting": "[4]", "value": "had no effect"},
      {"measurement": "PPR of monosynaptic EPSCs, AP5 in control peptide-treated neurons", "setting": "[4]; AP5 50 μM", "value": "increased"},
      {"measurement": "amplitude of monosynaptic EPSCs, AP5 in control peptide-treated neurons", "setting": "[4]; AP5 50 μM", "value": "markedly reduced"},
      {"measurement": "frequency of mEPSCs, AP5 in control peptide-incubated neurons", "setting": "[4]; AP5 50 μM", "value": "significantly reduced"},
      {"measurement": "frequency or amplitude of mEPSCs, subsequent AP5 after gabapentin", "setting": "[4]; AP5 50 μM", "value": "had no effect"},
      {"measurement": "frequency of mEPSCs in dorsal horn neurons", "setting": "[4]; AP5 50 μM, gabapentin 100 μM, peptide 1 μM for 60 min", "value": "largely normalized"},
      {"measurement": "amplitude of monosynaptic evoked EPSCs", "setting": "[4]; AP5 50 μM, gabapentin 100 μM, peptides 1 μM for 60 min", "value": "significantly reduced"},
      {"measurement": "paired-pulse ratio (PPR) of monosynaptically evoked EPSCs", "setting": "[4]; vehicle-incubated slices, AP5 50 μM", "value": "increased"},
      {"measurement": "frequency of mEPSCs, subsequent AP5 in slices pretreated with gabapentin", "setting": "[5]; SHRs", "value": "no longer had any effect"},
      {"measurement": "mEPSCs, further AP5 after α2δ-1Tat peptide", "setting": "[5]; SHRs, AP5 50 μmol L-1", "value": "no longer had any effect"},
      {"measurement": "baseline frequency of mEPSCs of labelled PVN neurons", "setting": "[5]; SHRs, AP5 50 μmol L-1, gabapentin 100 μmol L-1, peptides 1 μmol L-1, 60 min", "value": "readily normalized"},
      {"measurement": "frequency or amplitude of mEPSCs of labelled PVN neurons", "setting": "[5]; WKY rats", "value": "had no effect"}
    ]}
  ]
}
